Measurements reported in patent US6589954B1, “Compounds and methods to treat cardiac failure and other disorders” (Scios, Inc., priority 1998, dated 2003).

Amino acid sequences for entries named in this document (tags omitted).
UniProt Q16539, whole entry: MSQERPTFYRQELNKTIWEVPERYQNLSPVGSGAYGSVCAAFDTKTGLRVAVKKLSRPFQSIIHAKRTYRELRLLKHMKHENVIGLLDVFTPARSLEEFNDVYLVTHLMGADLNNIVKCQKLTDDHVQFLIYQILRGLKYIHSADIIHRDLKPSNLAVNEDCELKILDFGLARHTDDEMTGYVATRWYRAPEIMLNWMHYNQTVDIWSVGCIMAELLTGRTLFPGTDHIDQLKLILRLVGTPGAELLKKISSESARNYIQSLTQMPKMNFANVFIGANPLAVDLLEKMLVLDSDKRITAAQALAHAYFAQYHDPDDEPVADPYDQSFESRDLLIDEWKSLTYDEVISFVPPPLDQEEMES

Biological target: p38α (Homo sapiens, UniProt Q16539)
Experiment: Assay for p38 kinase inhibition (p38α);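 further: radiometric p38 kinase assay, peptide substrate phosphorylation with γ-32P-ATP, 40 min at room temperature, incorporated counts measured by scintillation, inhibition relative to uninhibited kinase activity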
Assay type: biochemical
Settings: read-out: IC50, inhibition of p38α; Table 5

Q: How did the pIC50 turn out when `O=C(c1ccc2c(ccn2Cc2ccncc2)c1)N1CCC(Cc2ccccc2)CC1` was run?
A: The pIC50 was 6.10.

pIC50: −log10 of the molar value.
